T1: active human C1s purified from human serum (CompTech, Tyler, TX, catalog number A104) (human, UniProt P09871 16-437; P09871 438-688)
T1 sequence 1: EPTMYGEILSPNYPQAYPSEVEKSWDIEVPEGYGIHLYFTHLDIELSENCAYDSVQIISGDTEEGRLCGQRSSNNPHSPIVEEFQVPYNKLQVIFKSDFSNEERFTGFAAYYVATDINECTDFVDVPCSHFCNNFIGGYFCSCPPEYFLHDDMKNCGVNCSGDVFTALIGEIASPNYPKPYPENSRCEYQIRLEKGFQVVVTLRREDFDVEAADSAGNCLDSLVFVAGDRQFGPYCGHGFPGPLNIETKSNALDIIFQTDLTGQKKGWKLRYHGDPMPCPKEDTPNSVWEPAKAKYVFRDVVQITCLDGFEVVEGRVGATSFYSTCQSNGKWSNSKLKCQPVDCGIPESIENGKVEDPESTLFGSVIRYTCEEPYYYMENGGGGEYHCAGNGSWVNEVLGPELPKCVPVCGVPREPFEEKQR
T1 sequence 2: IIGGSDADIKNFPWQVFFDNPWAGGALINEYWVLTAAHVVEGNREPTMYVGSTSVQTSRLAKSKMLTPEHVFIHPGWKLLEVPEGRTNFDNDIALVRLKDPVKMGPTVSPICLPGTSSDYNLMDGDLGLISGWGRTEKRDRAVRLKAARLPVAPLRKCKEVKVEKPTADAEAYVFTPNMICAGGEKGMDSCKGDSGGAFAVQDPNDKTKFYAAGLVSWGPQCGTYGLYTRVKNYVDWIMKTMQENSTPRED

B1: IgG4-MAB17 (MAB17 in human IgG4 with S228P, L235E and YTE) (antibody, V domains shown)
VH: QVQLVQSGAEVKKPGASVKVSCKVSGDTLTELSMHWVRQAPGKGLEWMGTFDPEEGETIYAQKFQGRVTMTEDTSTDTAYMELSSLRSEDTAVYYCVTEGEAGRPFDAWGQGTLVTVSS
VL: [about 100 residues with changes cut from this listing]
B2: MAB13 (antibody, V domains shown)
VH: QVQLVQSGAEVKKPGASVKVSCKVSGDTLTELSMHWVRQAPGKGLEWMGTFDPEEGETIYAQKFQGRVTMTEDTSTDTAYMELSSLRSEDTAVYYCVTEGLAGFPFDIWGQGTLVTVSS
VL: [about 100 residues cut from this listing]
notes: IgG
B3: MAB19 (antibody, V domains shown)
VH: QVQLVQSGAEVKKPGASVKVSCKVSGDTLTELSMHWVRQAPGKGLEWMGTFDPEEGETIYAQKFQGRVTMTEDTSTDTAYMELSYLRSEDTAVYYCVTEGLAGIPFDSWGQGTLVTVSS
VL: [about 100 residues cut from this listing]
notes: IgG

How the values were obtained:
[1] = biological target: T1, active human C1s purified from human …; assay: cell-based or functional assay
[2] = biological target: T1, active human C1s purified from human …; assay: cell-based or functional assay; remark: listed apart in the source
[3] = biological target: T1, active human C1s purified from human …; assay: cell-based or functional assay; remark: listed apart in the source
[4] = biological target: T1, active human C1s purified from human …; assay: SPR, antibody captured via anti-human Fc, C1s in solution

Row | Binder | IC50, inhibition of Wieslab complement classical pathway (C5b-9 ELISA), 1% human serum [1] | IC50, inhibition of sensitized hRBC lysis in 25% human serum, Donor 1 [2] | IC50, inhibition of sensitized hRBC lysis in 25% human serum, Donor 2 [2] | IC50, inhibition of sensitized hRBC lysis in 25% human serum, Donor 3 [2] | IC50, inhibition of C3b deposition on sensitized hRBCs in 7.5% human serum (flow cytometry), Donor A [3] | IC50, inhibition of C3b deposition on sensitized hRBCs in 7.5% human serum (flow cytometry), Donor B (1) [3] | IC50, inhibition of C3b deposition on sensitized hRBCs in 7.5% human serum (flow cytometry), Donor B (2) [3] | Kd [4] | koff [4] | kon [4]
1 | B1 | 4.1 nM | 11 nM | 20.5 nM | 3.8 nM | 40.7 nM | 112 nM | 202 nM | – | – | –
2 | B2 | – | – | – | – | – | – | – | 6 nM | 0.00122 s⁻¹ | 204000 M⁻¹ s⁻¹
3 | B3 | – | – | – | – | – | – | – | 6.18 nM | 0.000657 s⁻¹ | 106000 M⁻¹ s⁻¹

From US20250188188A1 (DIANTHUS THERAPEUTICS OPCO, published 2025)
